Assays:
[1] = biological target: T1, Serine/threonine-protein kinase Chk1 (Homo sapiens, UniProt O14757); assay: Inhibition of human CHK1
T1 sequence (O14757 whole entry): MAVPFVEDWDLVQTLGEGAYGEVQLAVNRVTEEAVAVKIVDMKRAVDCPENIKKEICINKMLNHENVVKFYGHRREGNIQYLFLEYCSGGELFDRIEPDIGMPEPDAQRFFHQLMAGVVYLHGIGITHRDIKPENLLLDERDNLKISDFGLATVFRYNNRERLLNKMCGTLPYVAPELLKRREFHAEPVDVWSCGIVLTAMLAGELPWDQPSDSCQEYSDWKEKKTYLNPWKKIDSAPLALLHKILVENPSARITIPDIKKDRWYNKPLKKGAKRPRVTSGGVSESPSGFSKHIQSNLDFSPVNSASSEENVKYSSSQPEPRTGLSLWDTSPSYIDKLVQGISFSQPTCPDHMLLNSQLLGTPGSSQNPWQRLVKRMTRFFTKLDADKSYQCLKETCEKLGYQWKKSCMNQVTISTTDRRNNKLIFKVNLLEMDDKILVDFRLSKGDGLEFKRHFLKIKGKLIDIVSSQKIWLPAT

[2] = biological target: T1, Serine/threonine-protein kinase Chk1; assay: Inhibition of CHK1 in human U2OS cells assessed as phosphorylation of H2AX after 2 hrs by FITC/propidium iodide staining-based immunofluorescence assay in presence of hydroxyurea; assay type: cell-based
[3] = biological target: T1, Serine/threonine-protein kinase Chk1

IC50 [1]: 3.7 nM
EC50 [2]: 30 nM
IC50 [3]: 1 nM
SMILES: COc1ccc2c(c1)C(=O)N(c1nc(C(=O)Nc3cnccc3N3CCNCC3)cs1)C2
